What was measured:
[1] = molecular target: T1, Mouse muscle embryonic nAChR, Trp α149, Leu9′Ser mutation in M2 of the β subunit (Mus musculus, UniProt P02716+P04756+P04760); test: Two-electrode voltage clamp of Xenopus oocytes expressing nAChR, Trp at α149 (wild type rescue by nonsense suppression); format: cell-based
T1 construct: expressed in transfected cells; host or cells: Xenopus laevis oocytes (mRNA and suppressor tRNA injected)
Procedure: (§1) Unnatural amino acids were incorporated into the nAChR using in vivo nonsense suppression methods, and mutant receptors were evaluated electrophysiologically (Dougherty, D. A. (2000) Curr. Opin. Chem. Biol. 4:645-652).
(§2) In studies of weak agonists and/or receptors with diminished binding capability, it is necessary to introduce another mutation that independently decreases EC50. This was accomplished via a Leu-to-Ser mutation in the β subunit at a site known as 9′ in the M2 transmembrane region of the receptor. This M2-β9′ site is almost 50 Å from the binding site, and previous work has shown that a Leu9′Ser mutation lowers the EC50 by a factor of roughly 10 without altering trends in EC50 values (Beene, D. L., et al. (2002) Biochem. 41:10262-9; and Kearney, P. C., et al. (1996) Mil. Pharmacol. 50:1401-1412). […] It is important to note that the EC50 value is not a binding constant, but a composite of equilibria for both binding and gating.
(§3) Stage VI oocytes of Xenopus laevis were employed. Oocyte recordings were made 24 to 48 h post injection in two-electrode voltage clamp mode using the OpusXpress™ 6000A (Axon Instruments, Union City, Calif.). Oocytes were superfused with Ca^2+-free ND96 solution at flow rates of 1 ml/min, 4 ml/min during drug application and 3 ml/min during wash. Holding potentials were −60 mV. Data were sampled at 125 Hz and filtered at 50 Hz. […]

Amino acid sequences for entries named in this document (tags omitted). Residues count along the entry.
UniProt P02716, 25-520, stated change not applied: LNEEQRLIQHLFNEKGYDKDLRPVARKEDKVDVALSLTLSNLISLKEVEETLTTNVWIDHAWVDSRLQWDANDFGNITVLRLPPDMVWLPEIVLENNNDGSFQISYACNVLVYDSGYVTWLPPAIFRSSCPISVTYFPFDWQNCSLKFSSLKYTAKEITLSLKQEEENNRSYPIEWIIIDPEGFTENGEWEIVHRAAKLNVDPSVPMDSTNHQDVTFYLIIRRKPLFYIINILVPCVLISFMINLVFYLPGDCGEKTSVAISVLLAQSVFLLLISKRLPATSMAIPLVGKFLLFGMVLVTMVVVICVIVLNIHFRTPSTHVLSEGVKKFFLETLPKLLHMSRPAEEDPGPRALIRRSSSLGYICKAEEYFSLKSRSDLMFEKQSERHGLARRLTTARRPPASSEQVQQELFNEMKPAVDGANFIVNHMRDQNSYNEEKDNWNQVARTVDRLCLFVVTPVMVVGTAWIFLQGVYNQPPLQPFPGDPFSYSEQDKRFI
UniProt P04760, 23-519, stated change not applied: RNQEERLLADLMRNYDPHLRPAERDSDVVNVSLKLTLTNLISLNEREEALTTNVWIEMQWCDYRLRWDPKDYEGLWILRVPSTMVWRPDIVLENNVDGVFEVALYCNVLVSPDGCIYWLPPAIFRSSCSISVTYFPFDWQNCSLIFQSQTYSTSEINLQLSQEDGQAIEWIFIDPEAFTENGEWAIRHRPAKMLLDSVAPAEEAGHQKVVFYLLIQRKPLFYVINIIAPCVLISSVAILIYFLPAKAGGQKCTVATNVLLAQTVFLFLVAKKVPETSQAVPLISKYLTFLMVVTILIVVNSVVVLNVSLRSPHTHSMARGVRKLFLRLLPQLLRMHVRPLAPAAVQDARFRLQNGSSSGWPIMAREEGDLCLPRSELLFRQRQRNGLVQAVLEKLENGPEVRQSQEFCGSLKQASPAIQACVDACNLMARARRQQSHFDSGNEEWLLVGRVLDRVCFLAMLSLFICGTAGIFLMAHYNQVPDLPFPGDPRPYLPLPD
UniProt P09690, 24-501 L285S: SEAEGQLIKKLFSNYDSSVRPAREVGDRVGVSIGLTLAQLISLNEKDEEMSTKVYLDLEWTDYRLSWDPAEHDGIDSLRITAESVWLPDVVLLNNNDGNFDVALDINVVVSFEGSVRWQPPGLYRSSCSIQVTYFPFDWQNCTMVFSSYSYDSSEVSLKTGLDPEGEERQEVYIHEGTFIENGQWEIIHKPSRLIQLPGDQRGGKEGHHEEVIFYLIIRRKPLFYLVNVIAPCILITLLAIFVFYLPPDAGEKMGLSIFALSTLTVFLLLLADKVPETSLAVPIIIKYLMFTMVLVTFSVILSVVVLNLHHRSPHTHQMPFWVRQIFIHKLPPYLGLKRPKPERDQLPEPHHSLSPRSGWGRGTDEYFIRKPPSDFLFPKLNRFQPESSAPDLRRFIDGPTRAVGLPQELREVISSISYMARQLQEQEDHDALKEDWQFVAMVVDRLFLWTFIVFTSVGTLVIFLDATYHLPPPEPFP

[2] = molecular target: T2, Mouse muscle embryonic nAChR, 5-F-Trp at α149, Leu9′Ser mutation in M2 of the β subunit (Mus musculus, UniProt P02716+P04756+P04760); test: Two-electrode voltage clamp of Xenopus oocytes expressing nAChR, F-Trp at α149; format: cell-based; conditions: read-out: EC50, F-Trp at α149, ± standard error of the mean
T2 construct: Mouse muscle embryonic nAChR in the pAMV vector was used
Procedure: as §1, §2, §3

[3] = molecular target: T3, Mouse muscle embryonic nAChR, 5,7-F2-Trp at α149, Leu9′Ser mutation in M2 of the β subunit (Mus musculus, UniProt P02716+P04756+P04760); test: Two-electrode voltage clamp of Xenopus oocytes expressing nAChR, F2-Trp at α149; format: cell-based; conditions: read-out: EC50, F2-Trp at α149, ± standard error of the mean
T3 construct: Mouse muscle embryonic nAChR in the pAMV vector was used
Procedure: as §1, §2, §3

[4] = molecular target: T4, Mouse muscle embryonic nAChR, 5,6,7-F3-Trp at α149, Leu9′Ser mutation in M2 of the β subunit (Mus musculus, UniProt P02716+P04756+P04760); test: Two-electrode voltage clamp of Xenopus oocytes expressing nAChR, F3-Trp at α149; format: cell-based; conditions: read-out: EC50, F3-Trp at α149, ± standard error of the mean
T4 construct: Mouse muscle embryonic nAChR in the pAMV vector was used
Procedure: as §1, §2, §3

[5] = molecular target: Mouse muscle embryonic nAChR, Thr α150, Leu9′Ser mutation in M2 of the β subunit (Mus musculus, UniProt P02716+P04756+P04760+P09690, L285S); test: cell-based
Procedure: as §1, §2
(§4) To evaluate this possibility, the backbone amide at this position was converted to an ester by replacing Thr α150 with the analog α-hydroxy threonine (Tah) using the nonsense suppression methodology (FIG. 9a). Converting an amide carbonyl to an ester carbonyl weakens the hydrogen bonding ability of the oxygen, an effect that has been estimated to be worth ˜[…] (Koh, J. T., et al. (1997) Biochem. 36:11314-22). […]

[6] = molecular target: T5, Mouse muscle embryonic nAChR, Tah α150 (ester carbonyl of Trp α149), Leu9′Ser mutation in M2 of the β subunit (Mus musculus, UniProt P02716+P04756+P04760); format: cell-based; conditions: read-out: EC50, Tah at α150, ± standard error of the mean, backbone ester
T5 construct: other: ± standard error of the mean; backbone ester; β Leu9′Ser; Mouse muscle embryonic nAChR in the pAMV vector was used
Procedure: as §1, §2, §4

Q: What does the source list for Clc1ccc(C2CC3CCC2N3)cn1 (racemic) [Epi, epibatidine]?
A: EC50 [1]: 720 ± 80 nM; EC50 [2]: 3.5 ± 0.1 µM; EC50 [3]: 7.5 ± 0.4 µM; EC50 [4]: 15 ± 1 µM; EC50 [5]: 600 ± 40 nM; EC50 [6]: 2200 ± 200 nM

— patent US20050009103A1, “Methods of precise molecular-level determination of ligand-receptor interactions and designing selective drug compounds based on said interactions” (priority 2003, published 2005)
